Reference: ChEMBL document CHEMBL5038630 (J Med Chem, 2022)

The chains behind the UniProt entries cited, without tags or fusion partners. Where a name states a change or a piece, a line headed by the entry shows the natural chain unless it says otherwise.
UniProt Q00959, whole entry, looked up: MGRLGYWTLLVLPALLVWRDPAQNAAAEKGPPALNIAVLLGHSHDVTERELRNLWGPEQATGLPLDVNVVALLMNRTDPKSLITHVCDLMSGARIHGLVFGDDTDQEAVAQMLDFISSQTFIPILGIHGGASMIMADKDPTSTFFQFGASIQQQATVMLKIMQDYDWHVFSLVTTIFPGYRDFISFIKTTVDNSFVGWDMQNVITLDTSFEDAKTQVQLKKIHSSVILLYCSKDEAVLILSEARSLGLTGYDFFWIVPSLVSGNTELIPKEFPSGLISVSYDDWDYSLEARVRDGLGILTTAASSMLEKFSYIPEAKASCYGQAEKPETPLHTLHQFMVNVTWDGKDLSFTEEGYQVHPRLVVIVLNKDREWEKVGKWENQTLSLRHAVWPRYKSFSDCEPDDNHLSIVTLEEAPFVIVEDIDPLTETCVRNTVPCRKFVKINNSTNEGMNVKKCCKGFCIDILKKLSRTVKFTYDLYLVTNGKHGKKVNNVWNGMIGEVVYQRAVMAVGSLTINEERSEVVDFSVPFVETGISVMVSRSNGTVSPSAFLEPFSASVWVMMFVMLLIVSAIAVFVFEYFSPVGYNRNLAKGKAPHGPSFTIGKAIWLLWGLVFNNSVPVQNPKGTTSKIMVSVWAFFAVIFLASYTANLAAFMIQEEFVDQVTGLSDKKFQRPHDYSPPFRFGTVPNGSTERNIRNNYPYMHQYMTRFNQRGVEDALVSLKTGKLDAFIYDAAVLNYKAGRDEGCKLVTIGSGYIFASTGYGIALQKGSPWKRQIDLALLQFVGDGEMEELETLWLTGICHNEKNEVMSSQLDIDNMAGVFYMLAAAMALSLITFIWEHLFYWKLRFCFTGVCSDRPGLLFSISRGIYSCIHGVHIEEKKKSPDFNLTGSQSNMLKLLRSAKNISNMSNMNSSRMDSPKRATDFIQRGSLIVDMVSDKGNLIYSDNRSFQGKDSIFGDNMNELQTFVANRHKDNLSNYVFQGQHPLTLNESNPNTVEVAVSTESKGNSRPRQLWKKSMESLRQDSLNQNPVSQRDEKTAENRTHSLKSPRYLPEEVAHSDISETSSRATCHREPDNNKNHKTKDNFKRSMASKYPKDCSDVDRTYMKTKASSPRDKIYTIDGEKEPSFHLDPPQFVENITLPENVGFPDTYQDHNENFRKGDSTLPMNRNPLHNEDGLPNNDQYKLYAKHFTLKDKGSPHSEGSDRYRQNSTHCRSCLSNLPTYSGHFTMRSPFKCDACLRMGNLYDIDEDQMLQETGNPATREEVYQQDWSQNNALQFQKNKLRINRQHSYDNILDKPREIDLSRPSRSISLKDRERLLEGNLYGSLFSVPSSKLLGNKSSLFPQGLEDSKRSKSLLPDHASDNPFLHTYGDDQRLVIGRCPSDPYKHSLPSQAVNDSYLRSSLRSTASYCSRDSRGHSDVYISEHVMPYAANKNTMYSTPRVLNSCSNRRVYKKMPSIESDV
UniProt Q00960, whole entry, looked up: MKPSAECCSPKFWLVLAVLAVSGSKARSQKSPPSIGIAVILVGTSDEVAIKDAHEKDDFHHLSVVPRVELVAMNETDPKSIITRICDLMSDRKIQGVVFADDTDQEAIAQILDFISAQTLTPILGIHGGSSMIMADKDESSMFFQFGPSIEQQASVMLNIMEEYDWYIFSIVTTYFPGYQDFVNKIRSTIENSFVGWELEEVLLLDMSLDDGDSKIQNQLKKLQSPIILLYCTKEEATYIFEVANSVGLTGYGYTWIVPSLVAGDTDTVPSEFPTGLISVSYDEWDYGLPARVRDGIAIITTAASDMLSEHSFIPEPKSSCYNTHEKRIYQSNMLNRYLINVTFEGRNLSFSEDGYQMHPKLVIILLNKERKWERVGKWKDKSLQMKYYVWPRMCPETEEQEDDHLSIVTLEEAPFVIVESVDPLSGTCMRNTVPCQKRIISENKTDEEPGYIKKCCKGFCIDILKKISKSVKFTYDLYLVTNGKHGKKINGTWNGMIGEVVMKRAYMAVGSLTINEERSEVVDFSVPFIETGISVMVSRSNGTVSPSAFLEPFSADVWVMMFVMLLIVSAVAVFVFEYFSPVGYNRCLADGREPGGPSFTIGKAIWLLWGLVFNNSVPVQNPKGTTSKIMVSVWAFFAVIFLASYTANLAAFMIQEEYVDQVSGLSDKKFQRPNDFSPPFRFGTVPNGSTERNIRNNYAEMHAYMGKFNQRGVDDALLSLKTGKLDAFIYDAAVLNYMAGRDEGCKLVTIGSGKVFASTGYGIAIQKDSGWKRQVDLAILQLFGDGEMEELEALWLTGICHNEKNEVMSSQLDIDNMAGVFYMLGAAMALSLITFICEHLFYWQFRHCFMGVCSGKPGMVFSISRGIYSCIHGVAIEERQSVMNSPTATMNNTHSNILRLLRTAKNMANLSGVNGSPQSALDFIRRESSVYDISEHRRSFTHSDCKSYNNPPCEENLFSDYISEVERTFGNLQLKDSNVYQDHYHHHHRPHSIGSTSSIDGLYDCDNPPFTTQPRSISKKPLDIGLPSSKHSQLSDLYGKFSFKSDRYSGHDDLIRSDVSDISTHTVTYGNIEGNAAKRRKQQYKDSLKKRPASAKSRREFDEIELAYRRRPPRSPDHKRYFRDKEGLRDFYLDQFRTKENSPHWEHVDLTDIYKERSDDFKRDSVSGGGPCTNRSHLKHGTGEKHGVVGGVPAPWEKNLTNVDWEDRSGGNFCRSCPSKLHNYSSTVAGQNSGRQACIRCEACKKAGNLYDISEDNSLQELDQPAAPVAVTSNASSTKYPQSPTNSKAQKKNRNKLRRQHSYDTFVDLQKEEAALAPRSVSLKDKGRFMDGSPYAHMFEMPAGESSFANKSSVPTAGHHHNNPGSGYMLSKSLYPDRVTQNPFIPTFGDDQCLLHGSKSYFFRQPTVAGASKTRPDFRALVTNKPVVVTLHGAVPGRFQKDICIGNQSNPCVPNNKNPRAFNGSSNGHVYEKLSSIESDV
UniProt Q00961: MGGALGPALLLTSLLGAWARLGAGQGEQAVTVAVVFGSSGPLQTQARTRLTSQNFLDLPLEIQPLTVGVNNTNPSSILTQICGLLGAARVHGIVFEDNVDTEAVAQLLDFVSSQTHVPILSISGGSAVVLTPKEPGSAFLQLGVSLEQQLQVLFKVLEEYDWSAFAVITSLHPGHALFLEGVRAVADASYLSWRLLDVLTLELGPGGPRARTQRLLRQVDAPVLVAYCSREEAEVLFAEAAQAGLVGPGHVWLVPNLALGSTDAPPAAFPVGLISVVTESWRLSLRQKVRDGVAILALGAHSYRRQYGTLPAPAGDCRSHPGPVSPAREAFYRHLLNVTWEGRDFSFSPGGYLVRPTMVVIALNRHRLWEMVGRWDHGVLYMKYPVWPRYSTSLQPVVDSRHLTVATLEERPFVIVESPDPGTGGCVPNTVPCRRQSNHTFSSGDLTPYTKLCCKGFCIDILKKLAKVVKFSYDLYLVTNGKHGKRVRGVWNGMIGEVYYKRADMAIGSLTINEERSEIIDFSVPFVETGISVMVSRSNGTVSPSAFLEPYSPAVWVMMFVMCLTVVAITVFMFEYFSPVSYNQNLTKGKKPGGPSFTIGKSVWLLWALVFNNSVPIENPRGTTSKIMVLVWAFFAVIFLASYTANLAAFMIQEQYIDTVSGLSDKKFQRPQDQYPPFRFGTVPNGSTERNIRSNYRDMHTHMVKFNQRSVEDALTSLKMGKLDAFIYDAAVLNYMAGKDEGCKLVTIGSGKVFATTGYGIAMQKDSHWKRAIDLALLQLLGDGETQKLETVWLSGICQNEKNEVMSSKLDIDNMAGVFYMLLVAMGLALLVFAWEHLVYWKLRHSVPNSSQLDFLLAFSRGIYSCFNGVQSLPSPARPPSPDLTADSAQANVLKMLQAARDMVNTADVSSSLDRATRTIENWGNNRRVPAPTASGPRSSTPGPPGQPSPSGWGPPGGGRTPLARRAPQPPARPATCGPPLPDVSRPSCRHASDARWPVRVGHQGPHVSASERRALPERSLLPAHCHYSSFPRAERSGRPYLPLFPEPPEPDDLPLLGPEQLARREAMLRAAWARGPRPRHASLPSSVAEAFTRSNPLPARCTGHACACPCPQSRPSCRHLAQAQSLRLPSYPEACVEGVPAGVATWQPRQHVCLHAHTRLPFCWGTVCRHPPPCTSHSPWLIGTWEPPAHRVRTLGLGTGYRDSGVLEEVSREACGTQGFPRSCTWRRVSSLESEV
UniProt Q62645, whole entry, looked up: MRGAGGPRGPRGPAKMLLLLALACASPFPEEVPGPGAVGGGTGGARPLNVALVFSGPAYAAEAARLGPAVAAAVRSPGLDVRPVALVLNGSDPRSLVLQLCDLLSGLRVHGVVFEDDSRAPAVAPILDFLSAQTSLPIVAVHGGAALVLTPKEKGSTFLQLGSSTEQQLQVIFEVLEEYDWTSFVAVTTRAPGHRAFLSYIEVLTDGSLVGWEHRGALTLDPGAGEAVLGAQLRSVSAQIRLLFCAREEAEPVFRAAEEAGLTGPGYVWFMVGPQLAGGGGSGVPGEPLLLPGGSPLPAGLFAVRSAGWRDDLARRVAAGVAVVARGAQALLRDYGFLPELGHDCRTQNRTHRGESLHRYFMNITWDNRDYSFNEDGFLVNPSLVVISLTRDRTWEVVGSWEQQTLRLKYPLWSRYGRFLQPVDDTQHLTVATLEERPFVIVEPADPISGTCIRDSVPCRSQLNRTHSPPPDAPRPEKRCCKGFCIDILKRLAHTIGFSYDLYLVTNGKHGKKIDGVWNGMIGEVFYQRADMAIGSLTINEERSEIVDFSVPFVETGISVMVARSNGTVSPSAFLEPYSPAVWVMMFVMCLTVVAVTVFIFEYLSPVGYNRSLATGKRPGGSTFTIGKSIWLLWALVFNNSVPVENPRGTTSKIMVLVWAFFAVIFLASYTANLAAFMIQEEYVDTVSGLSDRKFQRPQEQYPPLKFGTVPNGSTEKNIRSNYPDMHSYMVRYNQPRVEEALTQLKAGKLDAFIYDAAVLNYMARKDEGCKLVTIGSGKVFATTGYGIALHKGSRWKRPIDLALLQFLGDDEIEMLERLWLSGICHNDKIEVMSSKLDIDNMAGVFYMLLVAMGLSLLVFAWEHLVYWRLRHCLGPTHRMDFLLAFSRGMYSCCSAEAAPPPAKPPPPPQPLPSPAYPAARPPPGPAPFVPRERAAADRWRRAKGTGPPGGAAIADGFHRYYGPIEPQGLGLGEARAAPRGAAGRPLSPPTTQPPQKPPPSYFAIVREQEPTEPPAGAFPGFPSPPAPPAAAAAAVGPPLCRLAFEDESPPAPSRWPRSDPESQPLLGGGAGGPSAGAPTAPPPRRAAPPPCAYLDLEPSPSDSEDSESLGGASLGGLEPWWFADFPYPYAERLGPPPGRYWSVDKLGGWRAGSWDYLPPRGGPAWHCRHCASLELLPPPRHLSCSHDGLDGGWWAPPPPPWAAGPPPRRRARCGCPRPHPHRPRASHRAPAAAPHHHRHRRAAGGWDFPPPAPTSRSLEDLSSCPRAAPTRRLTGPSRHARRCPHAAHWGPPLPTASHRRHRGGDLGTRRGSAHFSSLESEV

Tests used:
Format in all cases: cell-based
[1] = molecular target: Glutamate NMDA receptor; Grin1/Grin2a (Rattus norvegicus) (UniProt P35439+Q00959); assay: Agonist activity at rat GluN1/GluN2A NMDA receptor expressed in Xenopus oocytes assessed as maximal relative efficacy measured after 4 days in presence of L-glutamte by two-electrode voltage-clamp recording assay relative to glycine; conditions: Oocyte, filed as agonist, time 4.0 day
Method in brief: (§1)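 Rat GluN1 plus GluN2A or GluN2B cRNA (1:2) in Xenopus oocytes. TEVC at −40 mV, room temperature, 2–4 days post-injection. Bath: 90 mM NaCl, 1 mM KCl, 10 mM HEPES, 0.5 mM BaCl2, 0.01 mM EDTA, pH 7.4. Oocytes were BAPTA-injected before recording. Agonist applied with 300 μM L-Glu throughout. […] NR means <5% response at the stated concentration. 3–14 oocytes.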

[2] = molecular target: Glutamate NMDA receptor; Grin1/Grin2b (Rattus norvegicus) (UniProt P35439+Q00960); assay: Agonist activity at rat GluN1/GluN2B NMDA receptor expressed in Xenopus oocytes assessed as maximal relative efficacy measured at 300 uM after 4 days in presence of L-glutamte by two-electrode voltage-clamp recording assay relative to glycine; conditions: Oocyte, time 4.0 day; method in brief: as §1
[3] = molecular target: Glutamate NMDA receptor; Grin1/Grin2c (Rattus norvegicus) (UniProt P35439+Q00961); assay: Agonist activity at rat GluN1/GluN2C NMDA receptor expressed in Xenopus oocytes assessed as maximal relative efficacy measured after 4 days in presence of L-glutamte by two-electrode voltage-clamp recording assay relative to glycine; conditions: Oocyte, filed as agonist, time 4.0 day
Method in brief: (§2)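 Xenopus oocytes were injected with rat GluN1 and GluN2C or GluN2D cRNA (1:2) and recorded by TEVC 2–4 days later at −40 mV, room temperature, pH 7.4 HEPES/NaCl/BaCl2 saline. Concentration-response with 300 μM L-Glu present. […] NR means <5% response at the concentration given. DMSO ≤0.5%. 3–14 oocytes.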

[4] = molecular target: Ionotropic glutamate receptor NMDA 1/2D (Rattus norvegicus) (UniProt P35439+Q62645); assay: Agonist activity at rat GluN1/GluN2D NMDA receptor expressed in Xenopus oocytes assessed as maximal relative efficacy measured after 4 days in presence of L-glutamte by two-electrode voltage-clamp recording assay relative to glycine; conditions: Oocyte, time 4.0 day; method in brief: as §2

Rmax [1]: 40%
Rmax [2]: < 5%
Rmax [3]: 52%
Rmax [4]: 11%
SMILES: CCc1ccccc1-c1ccc(C(=O)NC[C@@H](N)C(=O)O)o1
